# Cyclic peptide permeability, from CycPeptMPDB

Collected by the curators of CycPeptMPDB (Li et al. 2023) from Townsend et al. 2020, doi:10.26434/chemrxiv.13335941.v1.

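The data file gives no further conditions (lipid, pH, time, direction or concentration), and values from different papers need not be comparable. Other peptides of the study may be missing here. Peptides that the database sets to -10, its floor, are left out.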

PAMPA measures passive passage through an artificial lipid membrane.
P is given in units of 10^-6 cm/s (from log10 values with two decimals); larger means faster passage.

| structure (SMILES) | PAMPA (10^-6 cm/s) |
|---|---|
| CC(C)C[C@H]1C(=O)N(Cc2ccccc2)CC(=O)N2CCC[C@H]2C(=O)N(Cc2ccccc2)CC(=O)N[C@@H](Cc2ccccc2)C(=O)N(C)[C@@H](C)C(=O)N1C | 7.2 |
| CC(C)C[C@@H]1NC(=O)[C@@H](CC(C)C)NC(=O)[C@@H](C)N(C)C(=O)[C@H](Cc2ccccc2)NC(=O)[C@H](CC(C)C)N(C)C(=O)[C@@H]2CCCN2C1=O | 5.2 |
| CCCN1CC(=O)N[C@H](CC(C)C)C(=O)N(C)[C@H](CC(C)C)C(=O)N2CCC[C@@H]2C(=O)N(Cc2ccccc2)CC(=O)N[C@@H](Cc2ccccc2)C(=O)N2CCC[C@H]2C1=O | 1.3 |
| CC(C)C[C@H]1C(=O)N(Cc2ccccc2)CC(=O)N2CCC[C@H]2C(=O)N(C)[C@@H](CC(C)C)C(=O)N[C@@H](Cc2ccccc2)C(=O)N2CCC[C@H]2C(=O)N[C@@H](C)C(=O)N1C | 2.1 |
| CC(C)C[C@@H]1NC(=O)[C@H]2CCCN2C(=O)[C@@H](CC(C)C)NC(=O)[C@@H](CC(C)C)NC(=O)[C@H](C)NC(=O)[C@@H]2CCCN2C(=O)[C@H](Cc2ccccc2)NC1=O | 0.26 |
| CC(C)C[C@H]1NC(=O)[C@@H]2CCCN2C(=O)[C@H](CC(C)C)N(C)C(=O)[C@@H](CC(C)C)NC(=O)[C@H](C)N(C)C(=O)[C@H]2CCCN2C(=O)[C@H](Cc2ccccc2)NC1=O | 1.4 |
| CC(C)C[C@@H]1NC(=O)[C@H](CC(C)C)N(C)C(=O)[C@H](C)NC(=O)[C@@H]2CCCN2C(=O)[C@H](Cc2ccccc2)NC(=O)[C@@H](CC(C)C)N(C)C(=O)[C@@H]2CCCN2C1=O | 2.1 |
| CC(C)C[C@@H]1NC(=O)[C@H]2CCCN2C(=O)C[C@H](Cc2ccccc2)NC(=O)[C@@H](CC(C)C)NC(=O)[C@H](C)N(C)C(=O)[C@H](Cc2ccccc2)NC1=O | 1.1 |
| CC(C)C[C@H]1NC(=O)[C@@H]2CCCN2C(=O)CN(Cc2ccccc2)C(=O)[C@H](CC(C)C)N(C)C(=O)[C@H](C)NC(=O)[C@H](Cc2ccccc2)NC1=O | 0.85 |
| CCCN1CC(=O)N(C)[C@H](CC(C)C)C(=O)N(C)[C@@H](CC(C)C)C(=O)N2CCC[C@@H]2C(=O)N[C@H](CC(C)C)C(=O)N[C@@H](Cc2ccccc2)C(=O)N2CCC[C@H]2C1=O | 5.1 |
| CC(C)C[C@@H]1C(=O)N[C@@H](Cc2ccccc2)C(=O)N2CCC[C@@H]2C(=O)N[C@@H](Cc2ccccc2)CC(=O)N[C@H](CC(C)C)C(=O)N(C)[C@@H](CC(C)C)C(=O)N2CCC[C@@H]2C(=O)N1C | 5.5 |
| CC(C)C[C@@H]1C(=O)N(Cc2ccccc2)CC(=O)N2CCC[C@@H]2C(=O)N(C)[C@H](CC(C)C)C(=O)N[C@@H](Cc2ccccc2)C(=O)N2CCC[C@@H]2C(=O)N(C)[C@H](C)C(=O)N1C | 0.55 |
| CC(C)C[C@@H]1NC(=O)[C@@H]2CCCN2C(=O)C[C@H](Cc2ccccc2)NC(=O)[C@@H](CC(C)C)N(C)C(=O)[C@H](C)NC(=O)[C@H](Cc2ccccc2)NC1=O | 0.52 |
| CC(C)C[C@@H]1C(=O)N[C@@H](Cc2ccccc2)C(=O)N[C@@H](Cc2ccccc2)CC(=O)N(C)[C@@H](CC(C)C)C(=O)N[C@H](CC(C)C)C(=O)N2CCC[C@@H]2C(=O)N1C | 10 |
| CC(C)C[C@@H]1NC(=O)[C@@H]2CCCN2C(=O)[C@H](CC(C)C)N(C)C(=O)[C@@H](CC(C)C)NC(=O)[C@@H](C)N(C)C(=O)[C@H]2CCCN2C(=O)[C@H](Cc2ccccc2)NC1=O | 0.56 |
| CC(C)C[C@@H]1NC(=O)[C@@H](C)NC(=O)[C@H]2CCCN2C(=O)[C@H](Cc2ccccc2)NC(=O)[C@H](CC(C)C)N(C)C(=O)[C@H]2CCCN2C(=O)[C@H](CC(C)C)N(C)C1=O | 3.3 |
| CC(C)C[C@@H]1NC(=O)[C@@H]2CCCN2C(=O)[C@@H](CC(C)C)NC(=O)[C@@H](CC(C)C)NC(=O)[C@@H](C)NC(=O)[C@@H]2CCCN2C(=O)[C@H](Cc2ccccc2)NC1=O | 1.4 |
| CC(C)C[C@@H]1NC(=O)[C@@H](C)N(C)C(=O)[C@H]2CCCN2C(=O)[C@H](Cc2ccccc2)NC(=O)[C@H](CC(C)C)N(C)C(=O)[C@H]2CCCN2C(=O)C[C@H](Cc2ccccc2)NC1=O | 2.6 |
| CC(C)C[C@@H]1NC(=O)C[C@H](Cc2ccccc2)NC(=O)[C@H]2CCCN2C(=O)[C@H](Cc2ccccc2)NC(=O)[C@H](CC(C)C)N(C)C(=O)[C@@H]2CCCN2C(=O)C[C@H](Cc2ccccc2)NC1=O | 1.5 |
| CC(C)C[C@@H]1C(=O)N[C@H](CC(C)C)C(=O)N2CCC[C@@H]2C(=O)N[C@H](CC(C)C)C(=O)N[C@@H](Cc2ccccc2)C(=O)N2CCC[C@H]2C(=O)N(C)[C@@H](C)C(=O)N1C | 1.7 |
| CC(C)C[C@H]1C(=O)N[C@@H](Cc2ccccc2)CC(=O)N2CCC[C@@H]2C(=O)N(Cc2ccccc2)CC(=O)N[C@@H](Cc2ccccc2)C(=O)N2CCC[C@@H]2C(=O)N(C)[C@@H](C)C(=O)N1C | 1.6 |
| CC(C)C[C@@H]1NC(=O)C[C@H](Cc2ccccc2)NC(=O)[C@H]2CCCN2C(=O)[C@H](Cc2ccccc2)NC(=O)[C@H](CC(C)C)N(C)C(=O)[C@H]2CCCN2C(=O)CN(Cc2ccccc2)C1=O | 1.8 |
| CCCN1CC(=O)N(Cc2ccccc2)CC(=O)N(C)[C@H](CC(C)C)C(=O)N2CCC[C@H]2C(=O)N[C@@H](CC(C)C)C(=O)N[C@@H](Cc2ccccc2)C(=O)N2CCC[C@H]2C1=O | 1 |